The chains behind the UniProt entries cited, without tags or fusion partners.
UniProt P42336, whole entry, looked up: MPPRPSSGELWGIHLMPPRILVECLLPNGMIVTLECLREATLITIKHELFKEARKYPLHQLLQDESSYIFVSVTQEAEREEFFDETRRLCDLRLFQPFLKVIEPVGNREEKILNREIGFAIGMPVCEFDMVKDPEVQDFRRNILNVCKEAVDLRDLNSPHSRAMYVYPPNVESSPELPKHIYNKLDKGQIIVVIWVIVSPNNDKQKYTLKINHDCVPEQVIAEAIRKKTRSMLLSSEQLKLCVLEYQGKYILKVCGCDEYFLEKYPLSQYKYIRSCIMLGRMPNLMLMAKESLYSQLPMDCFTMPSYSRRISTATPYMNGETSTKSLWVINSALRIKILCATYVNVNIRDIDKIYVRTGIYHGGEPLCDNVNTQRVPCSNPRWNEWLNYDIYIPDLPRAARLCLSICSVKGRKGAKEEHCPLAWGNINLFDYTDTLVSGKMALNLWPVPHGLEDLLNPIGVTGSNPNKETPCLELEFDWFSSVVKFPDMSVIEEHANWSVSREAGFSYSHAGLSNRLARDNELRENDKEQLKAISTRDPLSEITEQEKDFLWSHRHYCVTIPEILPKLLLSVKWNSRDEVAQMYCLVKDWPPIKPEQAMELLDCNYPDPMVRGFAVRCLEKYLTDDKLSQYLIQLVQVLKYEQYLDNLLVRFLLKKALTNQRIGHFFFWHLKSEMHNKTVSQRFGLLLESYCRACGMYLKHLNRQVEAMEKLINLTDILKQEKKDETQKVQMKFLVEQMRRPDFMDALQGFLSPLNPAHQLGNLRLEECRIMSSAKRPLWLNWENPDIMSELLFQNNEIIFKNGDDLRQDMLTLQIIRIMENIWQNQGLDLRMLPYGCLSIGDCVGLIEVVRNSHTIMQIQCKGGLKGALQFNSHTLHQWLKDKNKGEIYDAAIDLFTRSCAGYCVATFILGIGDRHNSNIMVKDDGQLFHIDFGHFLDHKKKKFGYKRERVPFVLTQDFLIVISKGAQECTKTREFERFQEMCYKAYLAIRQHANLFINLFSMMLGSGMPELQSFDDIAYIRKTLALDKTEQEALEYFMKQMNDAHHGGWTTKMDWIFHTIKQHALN

In the Kinase Knowledgebase extract (Sharma et al. 2016):

Target: PIK3CA (human) (UniProt P42336)
Assay: Enzyme Assay

- IC50: 5.72 nM
SMILES: Nc1ncc(-c2nc(N3CCOCC3)c3c(n2)N2CCOCC2CO3)cn1 (stereo unspecified)
